One experiment relates to U937 cells. As to the kind of experiment: Cellular assay in U937 cells on cell death (necroptosis), TNFα/zVAD.fmk. Conditions: for IC50: read-out: U937 IC50, Table 2.
Experiment [1] addresses hRIPK1 (aa 1-375) fusion protein (Homo sapiens, UniProt Q13546). Nature of the experiment: ADP-Glo kinase assay, RIPK1 autophosphorylation. Type of experiment: biochemical. The following applies: for IC50: read-out: ADP-Glo IC50, Table 1. A general note: In ADP-Glo the light output rises with the ADP produced.

Amino acid sequences for entries named in this document (tags omitted). Residues count along the entry.
UniProt Q13546, 1-375 limits assumed: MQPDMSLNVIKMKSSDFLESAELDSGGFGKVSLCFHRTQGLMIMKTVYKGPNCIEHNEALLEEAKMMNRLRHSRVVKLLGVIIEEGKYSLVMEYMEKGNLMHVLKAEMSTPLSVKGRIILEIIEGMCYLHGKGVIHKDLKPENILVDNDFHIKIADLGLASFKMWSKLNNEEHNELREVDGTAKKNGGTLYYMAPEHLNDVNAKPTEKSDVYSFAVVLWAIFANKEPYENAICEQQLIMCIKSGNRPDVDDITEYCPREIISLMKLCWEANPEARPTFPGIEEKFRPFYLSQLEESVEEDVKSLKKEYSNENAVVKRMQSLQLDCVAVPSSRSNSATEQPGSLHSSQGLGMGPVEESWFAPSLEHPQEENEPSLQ

Like-named read-outs stand apart in the source and are kept apart here.

As a reminder, the IC50 is the point on the concentration scale where inhibition reaches its midpoint. Turning to `CN1CC(CNC(=O)c2ccnc(N3CCC(C(=O)N4OCC[C@H]4c4cncc(C#N)c4)CC3)n2)C1`, the values for the IC50 (with U937 cells; in experiment [1]) were 1470 nM and 331 nM, respectively.

For `NC(=O)c1ccnc(N2CCC(C(=O)N3OCC[C@H]3c3cncc(F)c3)CC2)n1`, in the experiment on U937 cells (example pairs 4/16 and 69/70), the “activity of S form compared with R form in U937 assay” value is listed as “significantly more active”. The results for the IC50 (with U937 cells; in experiment [1]) were 6.11 nM and 6.76 nM, respectively. Moreover, the “activity of S form compared with R form in ADP-Glo assay” value in experiment [1] (example pairs 4/16 and 69/70) is on record as “significantly more active”.

Regarding `N#Cc1ccnc(N2CCC(C(=O)N3OCCC3c3cncc(F)c3)CC2)n1` (racemic), the IC50 in the experiment on U937 cells is 44.9 nM; in experiment [1], 43 nM.

On to `N#Cc1cncc([C@@H]2CCON2C(=O)C2CCN(c3nccc(Cl)n3)CC2)c1`, for which the IC50 (in the experiment with U937 cells; in experiment [1]) was 19.7 nM in each case.

As for `N#Cc1cncc(C2CCON2C(=O)C2CCN(c3nccc(C(N)=O)n3)CC2F)c1` (stereo not drawn), the 50% inhibitory concentration (IC50) was 185 nM with U937 cells and 10.2 nM in experiment [1].

With `Cc1ccc([C@@H]2CCON2C(=O)C2CCN(c3nccc(C(N)=O)n3)CC2)cn1`, the 50% inhibitory concentration (IC50) with U937 cells was found to be 37.6 nM.

As for `N#Cc1cncc([C@@H]2CCON2C(=O)C2CCN(c3ncnc(C(=O)O)c3F)CC2)c1`, the half-maximal inhibitory concentration (IC50) came out at 359 nM in the experiment with U937 cells (tested form: TFA) and 935 nM in experiment [1] (tested form: TFA).

These data come from patent US12655139B2, “Isoxazolidines as RIPK1 inhibitors and use thereof” (SANOFI, priority 2020, dated 2026).
